Here are results for one molecule from patent US6936628B2, “Oral administration of epothilones” (Bristol-Myers Squibb Company, priority 2002, dated 2005).

Data set [1] deals with HCT116/VM46 cells. As to the kind of experiment: In vitro cytotoxicity assay (MTS), HCT116/VM46. The class given is cell-based, human. To be noted: concentration for 50% growth inhibition, HCT116/VM46 versus sensitive HCT116.
Data set [2] deals with Pat-7 human ovarian carcinoma. Kind of data set: In vivo antitumor testing, Pat-7 xenograft.
Data set [3] relates to Pat-21 paclitaxel resistant breast cancer model. Kind of data set: In vivo antitumor testing, Pat-21 xenograft. Also on record: species or system nude mice.
Data set [4] has as its system A2780Tax human ovarian carcinoma. As to the kind of experiment: In vivo antitumor testing, A2780Tax xenograft. More on the design: species or system nude mice.

Take `C/C(=C\c1csc(CN)n1)[C@@H]1C[C@@H]2O[C@]2(C)CCC[C@H](C)[C@H](O)[C@@H](C)C(=O)C(C)(C)[C@@H](O)CC(=O)O1` (relative stereo) [Compound A, [1S-[1R*,3R*(E),7R*,10S*,11R*,12R*,16S*]]-3-[2-[2-(aminomethyl)-4-thiazolyl]-1-methylethenyl]-7,11-dihydroxy-8,8,10,12,16-pentamethyl-4,17-dioxabicyclo[14.1.0]heptadecane-5,9-dione]: the “R/S, or resistance ratio” value in data set [1] worked out at 12.8 fold. In addition, in data set [2] (Pat-7, Expt. No. 18, PO, QD × 3 (text Q4D×3), 0.25M potassium phosphate pH 8.0, at MTD), the “LCK (cures/total)” value stood at 2.4. Further, the “LCK at dose levels considerably less than the MTD” value in data set [2] (Pat-7, IV, Q4D×3) is > 1 LCK. In data set [2] (Pat-7, nude mice, IV, Q4D×3), this molecule displayed an optimal dose of 8 mg/kg/inj. Besides, the MTD was 9 mg/kg/inj in data set [3] (Pat-21, mice, two courses of 3 doses every 4 days) and 10 mg/kg/inj in data set [4] (mice, Q4D×3). Also, the “LCK (gross log cell kill)” value in data set [3] (Pat-21, nude mice, IV, QD × 3, 37, 66 (two courses), at MTD/optimal dose, ^3 marked values from separate studies) was > 4.1; in data set [4] (nude mice, IV, QD × 3 (text Q4D×3), at MTD, ^3 marked values from separate studies), 3.6.
